From patent US9238053B2, “Methods for treatment of pain” (Nocicepta LLC, priority 2009, dated 2016)

Columns and labels:
rats [1] = conditions: 25 mg/kg intranasal, 4 rats, observed up to 24 hours
rats [2] = conditions: 5.0 mg/kg i.n., 20-30 minutes before charcoal meal
male rats = assay: Facial formalin model of tonic pain (formalin injection into the lip, facial wiping/grooming); conditions: rats receiving intranasal N/OFQ in formalin model
Method: Time spent grooming was determined over 45 minutes and grouped in 3 minute bins. […] The area under the curve (AUC) for each compound or vehicle was approximated using the trapezodial method. % Reduction=[(Vehicle AUC−Treatment AUC)/Vehicle AUC)]×100%. Data are presented as the mean±1 SEM. (n=6-8 Rats/group).
The paw formalin model is widely used to assess tonic pain efficacy of putative and known analgesic treatments.

CC(C)C[C@H](NC(=O)[C@H](CCCCN)NC(=O)[C@H](CCCN=C(N)N)NC(=O)[C@H](C)NC(=O)[C@H](CO)NC(=O)[C@H](CCCCN)NC(=O)[C@H](CCCN=C(N)N)NC(=O)[C@H](C)NC(=O)CNC(=O)[C@@H](NC(=O)[C@H](Cc1ccccc1)NC(=O)CNC(=O)CNC(=O)[C@@H](N)Cc1ccccc1)[C@@H](C)O)C(=O)N[C@@H](C)C(=O)N[C@@H](CC(N)=O)C(=O)N[C@@H](CCC(N)=O)C(=O)O [N/OFQ, Nociceptin/orphanin FQ]
abnormal behavioral responses (rats [1]): No abnormal responses were observed
effect on intestinal transit (percent transit) (rats [2]): no such effects were observed
sedation or other side-effects (male rats): no sedation or other obvious side-effects were observed
